{"source": "PubChem BioAssay AID743398", "about": "(Broad Institute, 2014)", "note": "The entries are a selection whose mix differs from that of the whole data set. Active and inactive are the calls of the source. Cut-off read from the data, not from the text of the source: active = activation above about 30% (passing the limit was not always enough); inconclusive = no clear call, values can overlap the other calls."}
{"test": "Wnt/beta-catenin pathway activators, primary screen, cell-based, plate reader, single point (AID 743398);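 note: 0% = neutral control wells and 100% = positive control wells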", "conditions": "Wnt/beta-catenin reporter cell assay, activator, at 9.35 µM, active compounds read high"}
{"smiles": "CCOC(=O)Nc1cccc([As](=O)(O)O)c1", "activation": "inactive: 0.323%"}
{"smiles": "O=[N+]([O-])c1ccc(Nc2ccc(Oc3ccc([N+](=O)[O-])cc3[N+](=O)[O-])cc2)c([N+](=O)[O-])c1", "activation": "inactive: -1.29%"}
{"smiles": "Cc1cc(SC(NC=O)C(Cl)(Cl)Cl)ncn1", "note": "(centres undefined)", "activation": "inactive: 0.805%"}
{"smiles": "O=P(Nc1ccccn1)(c1cccc2ccccc12)c1cccc2ccccc12", "activation": "inactive: -13.8%"}
{"smiles": "CC1CCNP(=O)(N(CCCl)CCCl)O1", "note": "(centres undefined)", "activation": "inactive: 2.2%"}
{"smiles": "O=C(O)C(O)c1ccc(N(CCCl)CCCl)cc1", "note": "(centres undefined)", "activation": "inactive: -7.66%"}
{"smiles": "CCOC(=O)Nc1ccc([As](=O)(O)O)c(O)c1", "activation": "inactive: -0.665%"}
{"smiles": "CCCCOc1ccc(C(=O)NCC2(N3CCCCC3)CCCCC2)cc1OC", "activation": "inactive: -2.17%"}
{"smiles": "Cc1cc(SC(NC(=O)c2ccccc2)C(Cl)(Cl)Cl)nc(C(C)C)n1", "note": "(centres undefined)", "activation": "inactive: 4.65%"}
{"smiles": "COP(=O)(OC)N1CC1c1ccccc1", "note": "(centres undefined)", "activation": "inactive: -0.671%"}
{"smiles": "CCOC(=O)c1ccc(NC(=O)C(C)(CCl)SC)cc1", "note": "(centres undefined)", "activation": "inactive: 0.924%"}
{"smiles": "O=C(OC1CN2CCC1CC2)c1cccc([N+](=O)[O-])c1", "note": "(centres undefined)", "activation": "inactive: 19.3%"}
{"smiles": "CCC(C)N(CC(C)C)C(=S)SC(NC(C)=O)C(Cl)(Cl)Cl", "note": "(centres undefined)", "activation": "inactive: -0.0625%"}
{"smiles": "COP1(=S)c2c(C)nn(CCC#N)c2N=C(c2ccc(F)cc2)N1C", "note": "(centres undefined)", "activation": "inactive: -3.14%"}
{"smiles": "COC(=O)C1(C)COP(=O)(N2CCCC2)OC1", "note": "(centres undefined)", "activation": "inactive: -1.29%"}
{"smiles": "O=C(COc1ccccc1)OC1CN2CCC1CC2", "note": "(centres undefined)", "activation": "inactive: -0.964%"}
{"smiles": "O=C(Nc1ccncc1[N+](=O)[O-])c1ccc([N+](=O)[O-])cc1[N+](=O)[O-]", "activation": "inactive: -0.625%"}
{"smiles": "O=C(O)C(=O)c1ccc(N(CCCl)CCCl)cc1", "activation": "inactive: -4.53%"}
{"smiles": "COc1ccc(N/C(=N/P(=O)(N2CCOCC2)N2CCOCC2)N2CCOCC2)cc1", "activation": "inactive: -0.909%"}
{"smiles": "O=[N+]([O-])c1cc(Oc2ccc([N+](=O)[O-])cc2C(F)(F)F)cc([N+](=O)[O-])c1", "activation": "inactive: -0.358%"}
{"smiles": "O=C(OC1CN2CCC1CC2)C12CC3CC(CC(C3)C1)C2", "note": "(centres undefined)", "activation": "inactive: -0.451%"}
{"smiles": "Cc1cc(=O)[nH]c(N[N+](=O)[O-])n1", "activation": "inactive: 1.35%"}
{"smiles": "Cc1c2c(nc3ccccc13)SC(C(Cl)Cl)C2", "note": "(centres undefined)", "activation": "inactive: -5.52%"}
{"smiles": "COc1ccc2nc(NP(=O)(c3ccccc3)c3ccccc3)sc2c1", "activation": "inactive: -5.36%"}
{"smiles": "COc1cc(I)ccc1[As](=O)(O)O", "activation": "inactive: -0.745%"}
{"smiles": "O=P1(N(CCCl)CCCl)OCCCN1CCCl", "note": "(centres undefined)", "activation": "inactive: -1.82%"}
{"smiles": "O=P1(N(CCCl)CCCl)Nc2ccccc2N1", "activation": "active: 41.6%"}
{"smiles": "COC(=O)C1(C)COP(=O)(N2CCCCCC2)OC1", "note": "(centres undefined)", "activation": "inactive: 5.82%"}
{"smiles": "CC(C)c1ccc(OP(=O)(Nc2ccccn2)Oc2ccccc2F)cc1", "note": "(centres undefined)", "activation": "inactive: -3.41%"}
{"smiles": "ClCCSc1nnc(-c2cccnc2)o1", "activation": "inactive: 12.4%"}
{"smiles": "CC(C)NC(=O)NP(=O)(Oc1ccccc1)Oc1ccccc1", "activation": "inactive: 0.2%"}
{"smiles": "O=C(OC1CN2CCC1CC2)c1cccc2[nH]cnc12", "note": "(centres undefined)", "activation": "inactive: 1.2%"}
{"smiles": "O=[As](O)(c1ccc(O)cc1)c1ccccc1O", "activation": "inactive: 0.712%"}
{"smiles": "C[As](=O)(O)c1cccc(C(=O)O)c1", "activation": "inactive: -1.09%"}
{"smiles": "O=[N+]([O-])c1ccc(-c2cc([N+](=O)[O-])c(O)c([N+](=O)[O-])c2)cc1", "activation": "inactive: -0.003%"}
{"smiles": "COc1cc(C(=O)NCC2(N3CCOCC3)CCCCC2)ccc1OCC(C)C", "activation": "inactive: 1.42%"}
{"smiles": "Cc1ccc2nc3c(c(C)c2c1)CC(C(Cl)Cl)S3", "note": "(centres undefined)", "activation": "inactive: 16.3%"}
{"smiles": "Cc1ccc(OP(=O)(Nc2ccc([N+](=O)[O-])cn2)Oc2ccc(C)cc2)cc1", "activation": "inactive: -3.17%"}
{"smiles": "[N-]=[N+]=NC1CCCCC1NC(=O)c1cc([N+](=O)[O-])cc([N+](=O)[O-])c1", "note": "(centres undefined)", "activation": "inactive: 4.71%"}
{"smiles": "NC(=O)Nc1ccc([As](=O)(O)O)cc1", "activation": "inactive: 1.79%"}
{"smiles": "CN(C)C(=O)c1cc([N+](=O)[O-])cc2c1-c1c(cc([N+](=O)[O-])cc1[N+](=O)[O-])C2=O", "activation": "inactive: -20.1%"}
{"smiles": "CN(C(=O)Cc1ccc(Cl)c(Cl)c1)[C@H]1CC[C@@]2(CCCO2)C[C@@H]1N1CCCC1", "activation": "inactive: -4.89%"}
{"smiles": "N#CCCN(C(=O)COC(=O)C(O)(c1ccccc1)c1ccccc1)c1ccc(F)cc1", "activation": "inactive: 2.28%"}
{"smiles": "CCOP1(=S)c2c(C)nn(CCC#N)c2N=C(c2ccc(F)cc2)N1C", "note": "(centres undefined)", "activation": "inactive: -0.768%"}
{"smiles": "CN(C(=O)Cc1ccccc1)[C@@H]1CC[C@]2(CCCO2)C[C@H]1N1CCCC1", "activation": "inactive: 29.1%"}
{"smiles": "CCOP1(=S)c2c(C)nn(CCC#N)c2N=C(c2ccccc2F)N1C", "note": "(centres undefined)", "activation": "inactive: -0.986%"}
{"smiles": "O=P(Nc1nccs1)(Oc1ccccc1)Oc1ccccc1", "activation": "inactive: -5.52%"}
{"smiles": "O=C(O)COc1ccc([As](=O)(O)O)cc1[N+](=O)[O-]", "activation": "inactive: -0.891%"}
{"smiles": "Nc1ccccc1[As](=O)(O)c1ccccc1", "activation": "inactive: 0.83%"}
